Protein sequences, listed by entry. Tags and fused reporters are not part of them.
UniProt Q8R4B8, whole entry, looked up: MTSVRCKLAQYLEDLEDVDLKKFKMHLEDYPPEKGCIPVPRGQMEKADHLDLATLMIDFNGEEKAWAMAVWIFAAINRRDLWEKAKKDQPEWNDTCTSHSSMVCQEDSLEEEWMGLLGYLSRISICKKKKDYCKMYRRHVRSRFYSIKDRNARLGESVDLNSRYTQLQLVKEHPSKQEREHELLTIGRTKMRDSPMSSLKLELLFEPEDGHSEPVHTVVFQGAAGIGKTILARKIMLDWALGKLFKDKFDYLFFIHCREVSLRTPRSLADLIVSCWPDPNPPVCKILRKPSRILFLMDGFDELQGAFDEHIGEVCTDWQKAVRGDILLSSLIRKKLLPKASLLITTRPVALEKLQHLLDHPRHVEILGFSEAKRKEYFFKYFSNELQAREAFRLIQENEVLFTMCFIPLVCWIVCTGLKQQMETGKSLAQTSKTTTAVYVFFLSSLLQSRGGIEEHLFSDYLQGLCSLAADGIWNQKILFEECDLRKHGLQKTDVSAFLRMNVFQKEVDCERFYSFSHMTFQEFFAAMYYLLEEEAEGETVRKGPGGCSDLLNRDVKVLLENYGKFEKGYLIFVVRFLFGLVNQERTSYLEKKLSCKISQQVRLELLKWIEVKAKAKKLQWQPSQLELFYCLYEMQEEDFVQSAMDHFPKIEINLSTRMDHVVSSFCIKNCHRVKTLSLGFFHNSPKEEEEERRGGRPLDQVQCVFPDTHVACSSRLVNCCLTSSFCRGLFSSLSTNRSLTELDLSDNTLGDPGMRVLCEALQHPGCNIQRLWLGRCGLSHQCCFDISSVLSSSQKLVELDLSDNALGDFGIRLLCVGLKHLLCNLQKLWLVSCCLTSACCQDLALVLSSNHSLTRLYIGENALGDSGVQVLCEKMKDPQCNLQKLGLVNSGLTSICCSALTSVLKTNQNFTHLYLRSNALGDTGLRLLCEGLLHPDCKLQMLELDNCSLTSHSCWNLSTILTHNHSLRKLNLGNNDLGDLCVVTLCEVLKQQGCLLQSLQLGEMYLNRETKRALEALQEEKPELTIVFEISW
UniProt Q96P20, whole entry, looked up: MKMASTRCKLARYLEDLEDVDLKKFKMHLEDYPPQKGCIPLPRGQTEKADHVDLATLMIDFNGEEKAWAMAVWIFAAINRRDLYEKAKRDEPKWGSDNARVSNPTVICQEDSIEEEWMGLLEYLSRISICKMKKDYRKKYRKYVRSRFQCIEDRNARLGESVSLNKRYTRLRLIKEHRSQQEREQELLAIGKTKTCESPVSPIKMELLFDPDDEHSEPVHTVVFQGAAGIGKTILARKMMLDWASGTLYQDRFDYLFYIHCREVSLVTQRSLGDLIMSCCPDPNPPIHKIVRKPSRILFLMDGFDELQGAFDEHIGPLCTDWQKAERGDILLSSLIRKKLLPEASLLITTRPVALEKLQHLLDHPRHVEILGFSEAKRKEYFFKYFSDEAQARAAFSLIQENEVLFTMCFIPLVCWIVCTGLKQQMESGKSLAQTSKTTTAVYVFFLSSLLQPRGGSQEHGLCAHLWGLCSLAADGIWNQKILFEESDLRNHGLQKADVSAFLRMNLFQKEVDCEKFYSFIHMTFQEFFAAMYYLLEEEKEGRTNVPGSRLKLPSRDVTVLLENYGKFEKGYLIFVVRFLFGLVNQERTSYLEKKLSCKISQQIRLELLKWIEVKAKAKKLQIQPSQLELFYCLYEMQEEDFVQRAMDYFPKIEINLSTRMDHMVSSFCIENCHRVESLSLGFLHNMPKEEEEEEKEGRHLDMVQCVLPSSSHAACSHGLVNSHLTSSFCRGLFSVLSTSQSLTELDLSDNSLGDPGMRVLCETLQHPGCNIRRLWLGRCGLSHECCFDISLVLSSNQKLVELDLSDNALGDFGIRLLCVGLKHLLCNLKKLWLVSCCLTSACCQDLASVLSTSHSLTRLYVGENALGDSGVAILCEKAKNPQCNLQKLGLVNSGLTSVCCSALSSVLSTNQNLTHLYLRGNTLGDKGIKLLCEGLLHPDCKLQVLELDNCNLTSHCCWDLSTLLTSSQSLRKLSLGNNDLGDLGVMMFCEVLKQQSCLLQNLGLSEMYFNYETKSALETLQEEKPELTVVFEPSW

According to ChEMBL document CHEMBL5390258, “Recent Progress and Prospects of Small Molecules for NLRP3 Inflammasome Inhibition” (J Med Chem, 2023):

Tests used:
[1] = biological target: NACHT, LRR and PYD domains-containing protein 3 (Mus musculus, UniProt Q8R4B8); test: Inhibition of NLRP3 in mouse BMDM cells assessed as reduction in IL-1beta production
[2] = biological target: NACHT, LRR and PYD domains-containing protein 3 (Homo sapiens, UniProt Q96P20); test: Binding affinity to GFP-flag-tagged human NLRP3 transfected in HEK293T cells assessed as equilibrium dissociation constant measured after 40 mins by MST assay

O=C(CBr)C1CC([N+](=O)[O-])([N+](=O)[O-])C1
IC50 [1]: 0.117 µM
Kd [2]: 0.0208 µM
